Measurements taken from patent publication US20260384438A1, “PYRROLOPYRIMIDINE CARBOXAMIDES” (published 2026).

By UniProt entry, the sequences of proteins in these tests, tags left out. Residues count along the entry.
UniProt P28222, whole entry: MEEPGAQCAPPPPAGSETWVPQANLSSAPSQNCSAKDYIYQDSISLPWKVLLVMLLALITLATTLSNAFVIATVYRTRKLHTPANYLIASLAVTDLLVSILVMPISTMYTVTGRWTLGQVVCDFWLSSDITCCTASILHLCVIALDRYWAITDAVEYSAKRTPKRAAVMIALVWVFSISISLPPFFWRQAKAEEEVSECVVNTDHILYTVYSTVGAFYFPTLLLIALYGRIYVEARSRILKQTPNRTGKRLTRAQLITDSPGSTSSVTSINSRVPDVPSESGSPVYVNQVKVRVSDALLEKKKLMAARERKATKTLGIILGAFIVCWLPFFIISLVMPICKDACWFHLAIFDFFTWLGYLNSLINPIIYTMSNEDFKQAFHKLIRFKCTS
UniProt P41595, whole entry: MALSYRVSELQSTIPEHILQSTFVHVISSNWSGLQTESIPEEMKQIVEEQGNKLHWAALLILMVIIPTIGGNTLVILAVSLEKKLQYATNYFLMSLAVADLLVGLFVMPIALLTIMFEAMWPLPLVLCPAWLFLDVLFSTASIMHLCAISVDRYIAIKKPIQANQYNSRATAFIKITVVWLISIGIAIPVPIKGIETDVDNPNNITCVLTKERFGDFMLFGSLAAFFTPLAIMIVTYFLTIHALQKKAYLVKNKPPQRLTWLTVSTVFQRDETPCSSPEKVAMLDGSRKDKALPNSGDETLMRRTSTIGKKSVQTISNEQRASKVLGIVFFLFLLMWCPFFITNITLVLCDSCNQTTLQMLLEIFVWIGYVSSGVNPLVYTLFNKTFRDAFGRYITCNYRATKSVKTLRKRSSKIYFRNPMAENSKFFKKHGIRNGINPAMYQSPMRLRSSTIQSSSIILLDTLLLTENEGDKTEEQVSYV
UniProt P30411, whole entry: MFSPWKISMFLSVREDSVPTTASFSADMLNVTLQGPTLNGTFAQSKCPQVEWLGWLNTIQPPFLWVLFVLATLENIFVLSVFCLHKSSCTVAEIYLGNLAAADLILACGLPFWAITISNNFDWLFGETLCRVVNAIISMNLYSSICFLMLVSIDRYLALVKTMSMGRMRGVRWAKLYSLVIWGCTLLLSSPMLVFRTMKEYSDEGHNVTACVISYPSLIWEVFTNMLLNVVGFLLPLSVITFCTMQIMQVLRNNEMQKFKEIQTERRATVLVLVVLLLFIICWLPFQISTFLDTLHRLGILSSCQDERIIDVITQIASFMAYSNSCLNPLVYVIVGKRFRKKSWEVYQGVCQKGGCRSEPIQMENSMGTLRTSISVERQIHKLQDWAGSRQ
UniProt P18507, 40-475 limits assumed: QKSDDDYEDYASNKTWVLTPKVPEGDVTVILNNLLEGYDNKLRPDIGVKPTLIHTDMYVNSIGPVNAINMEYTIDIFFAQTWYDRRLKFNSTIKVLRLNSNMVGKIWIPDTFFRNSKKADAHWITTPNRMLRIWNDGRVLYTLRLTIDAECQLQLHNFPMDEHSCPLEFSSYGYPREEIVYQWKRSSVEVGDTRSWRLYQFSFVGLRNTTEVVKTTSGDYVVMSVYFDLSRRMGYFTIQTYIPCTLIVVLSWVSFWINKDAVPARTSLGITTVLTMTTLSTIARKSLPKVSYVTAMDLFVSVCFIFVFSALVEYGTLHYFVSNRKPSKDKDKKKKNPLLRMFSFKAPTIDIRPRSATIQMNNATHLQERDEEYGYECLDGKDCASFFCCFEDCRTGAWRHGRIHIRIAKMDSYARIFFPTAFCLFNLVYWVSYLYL
UniProt Q92847, whole entry: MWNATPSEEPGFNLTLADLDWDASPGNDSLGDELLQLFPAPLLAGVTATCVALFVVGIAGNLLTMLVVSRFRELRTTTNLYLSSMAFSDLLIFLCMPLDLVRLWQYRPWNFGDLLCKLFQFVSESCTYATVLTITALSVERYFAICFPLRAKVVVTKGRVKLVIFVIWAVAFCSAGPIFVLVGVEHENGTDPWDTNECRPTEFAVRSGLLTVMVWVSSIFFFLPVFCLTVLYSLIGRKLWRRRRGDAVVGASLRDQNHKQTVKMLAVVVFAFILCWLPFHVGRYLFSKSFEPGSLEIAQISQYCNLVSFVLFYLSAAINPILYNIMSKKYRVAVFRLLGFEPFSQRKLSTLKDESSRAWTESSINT
UniProt P25021, whole entry: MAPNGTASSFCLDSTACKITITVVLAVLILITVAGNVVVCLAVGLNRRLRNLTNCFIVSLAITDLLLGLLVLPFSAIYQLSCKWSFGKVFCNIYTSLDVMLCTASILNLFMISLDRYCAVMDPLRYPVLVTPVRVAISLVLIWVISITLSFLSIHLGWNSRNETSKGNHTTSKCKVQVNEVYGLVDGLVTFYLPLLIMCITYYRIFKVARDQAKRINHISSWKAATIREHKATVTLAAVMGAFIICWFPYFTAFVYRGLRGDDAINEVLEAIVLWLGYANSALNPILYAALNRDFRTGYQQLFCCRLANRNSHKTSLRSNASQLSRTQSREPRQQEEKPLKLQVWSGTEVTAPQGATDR
UniProt P22002, whole entry: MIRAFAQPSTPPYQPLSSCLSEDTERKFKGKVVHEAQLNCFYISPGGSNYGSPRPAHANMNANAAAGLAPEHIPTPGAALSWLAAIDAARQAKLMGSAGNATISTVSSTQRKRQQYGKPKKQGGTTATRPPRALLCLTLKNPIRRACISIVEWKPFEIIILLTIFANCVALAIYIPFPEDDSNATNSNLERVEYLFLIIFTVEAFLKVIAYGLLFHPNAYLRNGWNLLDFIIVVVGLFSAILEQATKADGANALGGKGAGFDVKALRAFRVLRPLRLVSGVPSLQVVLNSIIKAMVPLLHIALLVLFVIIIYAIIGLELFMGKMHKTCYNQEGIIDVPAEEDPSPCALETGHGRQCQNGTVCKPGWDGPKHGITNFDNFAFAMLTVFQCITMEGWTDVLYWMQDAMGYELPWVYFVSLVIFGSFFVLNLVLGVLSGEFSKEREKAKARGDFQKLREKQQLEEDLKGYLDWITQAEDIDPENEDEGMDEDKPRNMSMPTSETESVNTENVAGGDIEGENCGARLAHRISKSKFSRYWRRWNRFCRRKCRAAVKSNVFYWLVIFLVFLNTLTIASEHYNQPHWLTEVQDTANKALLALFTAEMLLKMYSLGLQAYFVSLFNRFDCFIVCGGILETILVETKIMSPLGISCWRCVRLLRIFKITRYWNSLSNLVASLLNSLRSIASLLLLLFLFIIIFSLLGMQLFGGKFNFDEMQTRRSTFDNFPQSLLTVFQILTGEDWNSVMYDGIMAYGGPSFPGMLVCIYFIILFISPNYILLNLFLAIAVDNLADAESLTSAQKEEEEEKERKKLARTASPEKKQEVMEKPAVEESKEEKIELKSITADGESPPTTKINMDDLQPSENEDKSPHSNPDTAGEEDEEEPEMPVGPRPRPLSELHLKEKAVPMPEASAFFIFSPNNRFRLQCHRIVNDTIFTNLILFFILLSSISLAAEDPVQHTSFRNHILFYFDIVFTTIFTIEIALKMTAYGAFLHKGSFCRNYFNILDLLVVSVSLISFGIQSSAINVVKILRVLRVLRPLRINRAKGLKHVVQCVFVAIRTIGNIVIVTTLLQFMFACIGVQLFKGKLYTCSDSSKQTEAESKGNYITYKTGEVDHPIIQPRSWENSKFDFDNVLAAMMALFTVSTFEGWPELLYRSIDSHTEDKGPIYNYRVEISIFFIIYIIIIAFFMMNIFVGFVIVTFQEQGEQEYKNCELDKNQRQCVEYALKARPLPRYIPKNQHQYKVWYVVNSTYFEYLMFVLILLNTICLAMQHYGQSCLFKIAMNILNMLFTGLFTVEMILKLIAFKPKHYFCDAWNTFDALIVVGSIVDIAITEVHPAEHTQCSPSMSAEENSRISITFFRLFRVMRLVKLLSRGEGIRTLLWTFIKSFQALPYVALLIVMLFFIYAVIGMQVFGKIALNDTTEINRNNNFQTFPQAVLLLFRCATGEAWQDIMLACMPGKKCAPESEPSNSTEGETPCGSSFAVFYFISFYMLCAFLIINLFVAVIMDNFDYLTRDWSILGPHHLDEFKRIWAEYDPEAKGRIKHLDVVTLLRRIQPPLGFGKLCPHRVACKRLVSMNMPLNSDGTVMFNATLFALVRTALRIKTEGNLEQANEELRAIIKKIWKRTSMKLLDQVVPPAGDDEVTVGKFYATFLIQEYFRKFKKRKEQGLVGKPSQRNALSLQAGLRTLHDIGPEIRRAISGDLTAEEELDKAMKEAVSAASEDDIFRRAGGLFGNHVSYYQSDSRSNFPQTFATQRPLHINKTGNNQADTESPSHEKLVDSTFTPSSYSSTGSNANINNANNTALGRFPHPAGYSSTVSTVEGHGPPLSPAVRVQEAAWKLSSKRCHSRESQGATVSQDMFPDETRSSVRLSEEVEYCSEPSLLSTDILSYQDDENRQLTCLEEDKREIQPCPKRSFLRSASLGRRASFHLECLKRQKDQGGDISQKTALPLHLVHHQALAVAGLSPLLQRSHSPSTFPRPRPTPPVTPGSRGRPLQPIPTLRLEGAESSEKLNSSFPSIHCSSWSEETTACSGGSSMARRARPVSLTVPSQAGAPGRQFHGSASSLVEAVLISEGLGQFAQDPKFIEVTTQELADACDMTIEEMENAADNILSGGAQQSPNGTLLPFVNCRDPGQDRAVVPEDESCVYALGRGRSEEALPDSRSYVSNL
UniProt P10276, whole entry: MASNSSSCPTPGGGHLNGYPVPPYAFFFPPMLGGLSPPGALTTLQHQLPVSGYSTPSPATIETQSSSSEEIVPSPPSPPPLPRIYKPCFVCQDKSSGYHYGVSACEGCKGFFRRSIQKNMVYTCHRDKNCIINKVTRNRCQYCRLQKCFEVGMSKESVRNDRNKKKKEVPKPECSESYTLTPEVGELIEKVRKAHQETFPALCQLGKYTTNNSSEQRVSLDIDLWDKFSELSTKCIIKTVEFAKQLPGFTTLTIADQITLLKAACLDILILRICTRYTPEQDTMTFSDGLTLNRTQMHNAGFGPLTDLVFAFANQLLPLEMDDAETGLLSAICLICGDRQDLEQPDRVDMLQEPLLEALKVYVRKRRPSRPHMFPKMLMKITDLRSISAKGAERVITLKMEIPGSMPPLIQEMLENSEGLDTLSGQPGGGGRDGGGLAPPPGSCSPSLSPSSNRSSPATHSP
UniProt P18825, whole entry: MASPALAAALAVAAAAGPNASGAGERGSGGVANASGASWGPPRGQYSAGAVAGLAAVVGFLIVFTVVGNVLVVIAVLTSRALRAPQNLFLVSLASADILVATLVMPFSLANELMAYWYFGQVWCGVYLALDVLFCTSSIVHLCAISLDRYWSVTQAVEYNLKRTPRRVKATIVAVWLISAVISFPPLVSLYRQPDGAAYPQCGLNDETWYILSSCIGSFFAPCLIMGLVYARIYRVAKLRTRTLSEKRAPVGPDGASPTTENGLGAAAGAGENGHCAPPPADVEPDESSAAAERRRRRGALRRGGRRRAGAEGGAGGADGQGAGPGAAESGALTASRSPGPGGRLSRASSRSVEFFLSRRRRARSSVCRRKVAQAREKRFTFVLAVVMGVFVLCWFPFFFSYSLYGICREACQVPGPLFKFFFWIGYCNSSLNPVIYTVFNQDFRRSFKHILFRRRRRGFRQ
UniProt P36544, 23-502 limits assumed: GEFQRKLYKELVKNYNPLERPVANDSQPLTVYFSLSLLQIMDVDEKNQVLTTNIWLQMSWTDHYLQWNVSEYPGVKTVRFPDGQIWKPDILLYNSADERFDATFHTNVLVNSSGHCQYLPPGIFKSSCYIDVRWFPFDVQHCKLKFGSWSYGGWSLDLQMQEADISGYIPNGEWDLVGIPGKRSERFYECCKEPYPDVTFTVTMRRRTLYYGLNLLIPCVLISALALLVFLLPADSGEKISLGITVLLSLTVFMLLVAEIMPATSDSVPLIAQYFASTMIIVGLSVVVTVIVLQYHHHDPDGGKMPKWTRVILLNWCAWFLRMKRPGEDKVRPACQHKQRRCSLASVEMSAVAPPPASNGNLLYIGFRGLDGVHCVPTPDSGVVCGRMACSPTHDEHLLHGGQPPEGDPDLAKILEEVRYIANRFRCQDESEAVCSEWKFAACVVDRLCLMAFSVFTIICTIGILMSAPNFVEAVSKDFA
UniProt P08588, whole entry: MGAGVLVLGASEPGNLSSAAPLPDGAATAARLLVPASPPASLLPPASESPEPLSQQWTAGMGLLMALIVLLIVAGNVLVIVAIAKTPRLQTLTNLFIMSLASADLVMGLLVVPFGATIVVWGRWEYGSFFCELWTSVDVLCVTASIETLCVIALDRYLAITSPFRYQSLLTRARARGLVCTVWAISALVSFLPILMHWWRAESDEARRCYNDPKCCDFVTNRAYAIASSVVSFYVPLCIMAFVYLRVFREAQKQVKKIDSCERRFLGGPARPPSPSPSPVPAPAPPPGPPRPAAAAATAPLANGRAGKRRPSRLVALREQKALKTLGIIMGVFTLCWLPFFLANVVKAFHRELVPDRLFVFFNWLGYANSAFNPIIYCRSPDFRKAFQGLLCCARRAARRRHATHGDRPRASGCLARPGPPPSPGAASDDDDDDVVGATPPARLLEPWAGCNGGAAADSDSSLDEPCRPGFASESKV

What was measured:
Experiment in all cases: Secondary pharmacology, radioligand binding
[1] = target: 5-HT1A receptor (Homo sapiens, UniProt P08908)
[2] = target: 5-HT1B receptor (Homo sapiens, UniProt P28222)
[3] = target: 5-HT1D receptor (Rattus norvegicus, UniProt P28565)
[4] = target: 5-HT2B receptor (Homo sapiens, UniProt P41595)
[5] = target: 5-HT7 receptor (Homo sapiens, UniProt P34969)
[6] = target: A1 adenosine receptor (Homo sapiens, UniProt P30542)
[7] = target: A2A adenosine receptor (Homo sapiens, UniProt P29274)
[8] = target: AT1 angiotensin receptor (Homo sapiens, UniProt P30556)
[9] = target: Adenosine Transporter (Cavia porcellus, UniProt H0V4R7)
[10] = target: B2 bradykinin receptor (Homo sapiens, UniProt P30411)
[11] = target: CB1 cannabinoid receptor (Homo sapiens, UniProt P21554)
[12] = target: D2l dopamine receptor (Homo sapiens, UniProt P14416)
[13] = target: Dopamine transporter (DAT) (Homo sapiens, UniProt Q01959)
[14] = target: GABAAα1β2γ2 receptor (Homo sapiens, UniProt P14867+P18507+P47870)
[15] = target: Ghrelin receptor (Homo sapiens, UniProt Q92847)
[16] = target: H2 histamine receptor (Homo sapiens, UniProt P25021)
[17] = target: L-Type calcium channel (CaV1.2) (Benzothiazepine) (Rattus norvegicus, UniProt P22002)
[18] = target: L-Type calcium channel (CaV1.2) (Phenylalkylamine) (Rattus norvegicus, UniProt P22002)
[19] = target: M2 muscarinic receptor (Homo sapiens, UniProt P08172)
[20] = target: MT2 melatonin receptor (Homo sapiens, UniProt P49286)
[21] = tested on: NMDA receptor (Agonist site)
[22] = target: Noradrenaline Transporter (NET) (Homo sapiens, UniProt P23975)
[23] = target: Retinoic acid receptor-α (Homo sapiens, UniProt P10276)
[24] = target: SST4 somatostatin receptor (Homo sapiens, UniProt P31391)
[25] = target: TP prostanoid receptor (Homo sapiens, UniProt P21731)
[26] = target: α1A adrenoceptor (Homo sapiens, UniProt P35348)
[27] = target: α2A adrenoceptor (Homo sapiens, UniProt P08913)
[28] = target: α2C adrenoceptor (Homo sapiens, UniProt P18825)
[29] = target: α7 nicotinic receptor (Homo sapiens, UniProt P36544)
[30] = target: β1 adrenoceptor (Homo sapiens, UniProt P08588)
[31] = target: β2 adrenoceptor (Homo sapiens, UniProt P07550)
[32] = target: μ opioid receptor (Homo sapiens, UniProt P35372)

## Cc1nc(C(F)(F)F)c2c(C(N)=O)c(N)n(-c3c(C)ccc(O)c3C)c2n1 (single isomer, unassigned)
[1]
  Pharmacological mode of action: Inactive
[1]; read-out: Binding Ki
  Ki: > 100 µM
[2]
  Pharmacological mode of action: Inactive
[2]; read-out: Binding Ki
  Ki: > 100 µM
[3]
  Pharmacological mode of action: Inactive
[3]; read-out: Binding Ki
  Ki: > 100 µM
[4]
  Pharmacological mode of action: Inactive
[4]; read-out: Binding Ki
  Ki: > 100 µM
[5]
  Pharmacological mode of action: Inactive
[5]; read-out: Binding Ki
  Ki: > 100 µM
[6]
  Pharmacological mode of action: Inactive
[6]; read-out: Binding Ki
  Ki: > 100 µM
[7]
  Pharmacological mode of action: Inactive
[7]; read-out: Binding Ki
  Ki: > 100 µM
[8]
  Pharmacological mode of action: Inactive
[8]; read-out: Binding Ki
  Ki: > 100 µM
[9]
  Pharmacological mode of action: Inactive
[9]; read-out: Binding Ki
  Ki: > 100 µM
[10]
  Pharmacological mode of action: Inactive
[10]; read-out: Binding Ki
  Ki: > 100 µM
[11]
  Pharmacological mode of action: Inactive
[11]; read-out: Binding Ki
  Ki: > 100 µM
[12]
  Pharmacological mode of action: Inactive
[12]; read-out: Binding Ki
  Ki: > 100 µM
[13]
  Pharmacological mode of action: Inactive
[13]; read-out: Binding Ki
  Ki: > 100 µM
[14]
  Pharmacological mode of action: Inactive
[14]; read-out: Binding Ki
  Ki: > 100 µM
[15]
  Pharmacological mode of action: Inactive
[15]; read-out: Binding Ki
  Ki: > 100 µM
[16]
  Pharmacological mode of action: Inactive
[16]; read-out: Binding Ki
  Ki: > 100 µM
[17]
  Pharmacological mode of action: Inactive
[17]; read-out: Binding Ki
  Ki: > 100 µM
[18]
  Pharmacological mode of action: Inactive
[18]; read-out: Binding Ki
  Ki: > 100 µM
[19]
  Pharmacological mode of action: Inactive
[19]; read-out: Binding Ki
  Ki: > 100 µM
[20]
  Pharmacological mode of action: Inactive
[20]; read-out: Binding Ki
  Ki: > 100 µM
[21]
  Pharmacological mode of action: Inactive
[21]; read-out: Binding Ki
  Ki: > 100 µM
[22]
  Pharmacological mode of action: Inactive
[22]; read-out: Binding Ki
  Ki: > 100 µM
[23]
  Pharmacological mode of action: Inactive
[23]; read-out: Binding Ki
  Ki: > 100 µM
[24]
  Pharmacological mode of action: Inactive
[24]; read-out: Binding Ki
  Ki: > 100 µM
[25]
  Pharmacological mode of action: Inactive
[25]; read-out: Binding Ki
  Ki: > 30.1 µM
[26]
  Pharmacological mode of action: Inactive
[26]; read-out: Binding Ki
  Ki: > 100 µM
[27]
  Pharmacological mode of action: Inactive
[27]; read-out: Binding Ki
  Ki: > 100 µM
[28]
  Pharmacological mode of action: Inactive
[28]; read-out: Binding Ki
  Ki: > 100 µM
[29]
  Pharmacological mode of action: Inactive
[29]; read-out: Binding Ki
  Ki: > 100 µM
[30]
  Pharmacological mode of action: Inactive
[30]; read-out: Binding Ki
  Ki: > 100 µM
[31]
  Pharmacological mode of action: Inactive
[31]; read-out: Binding Ki
  Ki: > 100 µM
[32]
  Pharmacological mode of action: Inactive
[32]; read-out: Binding Ki
  Ki: > 100 µM
